For this test, the system named is Staphylococcus aureus Rosenbach (ATCC 25923). Description: Antibacterial microbroth dilution MIC/MBC against S. aureus. The format is cell-based. How it is done:
The minimum inhibition concentration (MIC) and the minimum bactericidal/fungicidal concentration (MBC/MFC) were carried out using the microbroth dilution method according to the Clinical Laboratory Standards Institute (CLSI) guidelines, with some modifications. […] The tested compounds were then incubated together with bacterial cells at 37 °C for 24 h and with fungal spores at 25 °C for 72 h, respectively. The OD600 measurements were subsequentially carried out to evaluate the inhibitory effect of the compounds. To further determine the bactericidal and fungicidal effects of the compounds, 5 µL of the treated culture was transferred onto new media microplates. The plates were incubated under the same condition, followed by the OD600 measurement. […] The cells were then treated with the compounds for 72 h at 37 °C in the presence of 5% CO2. Any Cytotoxic effect was detected with PrestoBlue™ cell viability reagent (ThermoFisher Scientific, Waltham, MA, USA). The cells were read with a fluorescence reading at an excitation of 560 nm and an emission 590 nm. Standard inhibitors, gentamicin (Gibco, Waltham, MA, USA), amphotericin (Sigma-Aldrich, St. Louis, MO, USA) and puromycin (Sigma-Aldrich, St. Louis, MO, USA) were used as the assay controls for the antibacterial, antifungal and cytotoxicity assay. […]
In general terms: Dilution methods test growth across graded concentrations, often in twofold steps.

Here are results for one compound from article PMC9822014, “Antibacterial Thiopeptide GE2270-Congeners from Nonomuraea jiangxiensis” (Molecules, 2022).

Molecules are shown by their SMILES. Values after ≈ are worked out from the molar mass of the structure shown.

As to `CNC(=O)C[C@@H]1NC(=O)c2csc(n2)-c2ccc(-c3nc(C(=O)N[C@@H](CO)C(=O)N4CCC[C@H]4C(N)=O)cs3)nc2-c2csc(n2)-c2csc(n2)[C@H]([C@@H](O)c2ccccc2)NC(=O)CNC(=O)c2nc(sc2COC)[C@H](C(C)C)NC(=O)c2nc1sc2C` [Compound 6], the MBC (ATCC25923, S. aureus Rosenbach ATCC 25923, treated culture transferred to new media, OD600, mean ± SD, triplicates, read-out: MBC90 [(μM) mean ± SD]) was found to be 31.8 ± 1.38 µM (≈ 41.6 µg/mL). Also, the MBC90 (minimal bactericidal concentration) (ATCC25923, read-out: MBC (IC90) / minimal bactericidal concentration (MBC90)) stood at 31.8 µM (≈ 41.6 µg/mL).
